The entries are a selection whose mix differs from that of the whole data set. Calls of active or inactive are those of the source. The calls were made as follows: active = hit-call score of the fitted dose curve at least 0.9, where 1 is the maximum; inactive = score below 0.9.
Assays:
[1] = target: Transcription factor E2F1 (Homo sapiens) (UniProt Q01094); experiment: ATG_E2F_CIS: Attagene CIS-FACTORIAL HepG2 Assay for human E2F Transcription Factor 1 (AID 2282935); conditions: HepG2 Attagene cis-reporter, E2F reporter RNA transcripts; actives raise or lower the signal
How it was run: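 Fluorescent RT-PCR products, digested with HpaI for 2 h at 37 C, are separated by capillary electrophoresis. Source RNA comes from transfected HepG2 cultures treated for 24 h.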

Chains of the proteins cited; added tags and fusions are not shown.
UniProt Q01094, whole entry: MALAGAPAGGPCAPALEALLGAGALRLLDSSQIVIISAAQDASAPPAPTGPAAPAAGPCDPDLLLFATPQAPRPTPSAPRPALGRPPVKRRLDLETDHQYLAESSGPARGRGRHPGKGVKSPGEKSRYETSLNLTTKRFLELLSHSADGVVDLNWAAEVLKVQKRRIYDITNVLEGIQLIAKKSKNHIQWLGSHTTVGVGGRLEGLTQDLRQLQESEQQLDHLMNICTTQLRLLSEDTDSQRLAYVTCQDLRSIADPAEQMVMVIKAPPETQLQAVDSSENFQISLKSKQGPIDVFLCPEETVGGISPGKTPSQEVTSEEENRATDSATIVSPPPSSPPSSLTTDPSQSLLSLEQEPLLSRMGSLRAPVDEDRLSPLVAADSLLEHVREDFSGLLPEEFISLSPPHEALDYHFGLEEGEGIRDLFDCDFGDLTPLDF
UniProt Q9Y261, whole entry: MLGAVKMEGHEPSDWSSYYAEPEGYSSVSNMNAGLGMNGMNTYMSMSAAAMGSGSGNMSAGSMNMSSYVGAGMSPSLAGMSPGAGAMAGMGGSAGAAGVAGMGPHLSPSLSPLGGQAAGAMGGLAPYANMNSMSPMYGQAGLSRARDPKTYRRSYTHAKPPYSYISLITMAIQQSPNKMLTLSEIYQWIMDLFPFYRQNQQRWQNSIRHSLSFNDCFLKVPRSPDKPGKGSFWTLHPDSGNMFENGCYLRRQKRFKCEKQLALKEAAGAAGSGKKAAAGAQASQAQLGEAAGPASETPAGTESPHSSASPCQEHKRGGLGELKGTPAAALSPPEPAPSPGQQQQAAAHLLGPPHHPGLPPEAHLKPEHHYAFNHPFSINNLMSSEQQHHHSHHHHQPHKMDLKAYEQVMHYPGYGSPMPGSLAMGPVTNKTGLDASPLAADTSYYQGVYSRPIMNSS
UniProt Q16665, whole entry: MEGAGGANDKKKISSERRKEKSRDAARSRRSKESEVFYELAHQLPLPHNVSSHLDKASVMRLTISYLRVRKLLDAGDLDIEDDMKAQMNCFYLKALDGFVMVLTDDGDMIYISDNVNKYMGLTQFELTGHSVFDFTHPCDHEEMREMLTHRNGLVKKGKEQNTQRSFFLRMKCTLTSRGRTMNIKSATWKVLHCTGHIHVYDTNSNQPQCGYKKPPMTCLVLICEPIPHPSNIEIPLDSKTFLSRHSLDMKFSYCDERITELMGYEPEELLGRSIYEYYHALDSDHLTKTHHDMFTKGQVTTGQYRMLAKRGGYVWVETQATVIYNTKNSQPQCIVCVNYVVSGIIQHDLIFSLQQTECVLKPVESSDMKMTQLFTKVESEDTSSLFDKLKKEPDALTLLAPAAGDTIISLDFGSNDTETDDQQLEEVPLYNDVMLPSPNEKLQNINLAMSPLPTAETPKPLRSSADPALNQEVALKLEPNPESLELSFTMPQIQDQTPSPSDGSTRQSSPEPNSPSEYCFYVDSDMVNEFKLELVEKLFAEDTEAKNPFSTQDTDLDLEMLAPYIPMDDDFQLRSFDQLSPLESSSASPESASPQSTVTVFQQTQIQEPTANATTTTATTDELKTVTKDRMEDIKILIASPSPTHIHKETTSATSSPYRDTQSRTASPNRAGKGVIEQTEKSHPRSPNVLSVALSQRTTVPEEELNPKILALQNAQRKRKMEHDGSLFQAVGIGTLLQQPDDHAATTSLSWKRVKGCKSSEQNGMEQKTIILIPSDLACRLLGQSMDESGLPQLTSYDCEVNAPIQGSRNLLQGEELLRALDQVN
UniProt Q9UBC0, whole entry: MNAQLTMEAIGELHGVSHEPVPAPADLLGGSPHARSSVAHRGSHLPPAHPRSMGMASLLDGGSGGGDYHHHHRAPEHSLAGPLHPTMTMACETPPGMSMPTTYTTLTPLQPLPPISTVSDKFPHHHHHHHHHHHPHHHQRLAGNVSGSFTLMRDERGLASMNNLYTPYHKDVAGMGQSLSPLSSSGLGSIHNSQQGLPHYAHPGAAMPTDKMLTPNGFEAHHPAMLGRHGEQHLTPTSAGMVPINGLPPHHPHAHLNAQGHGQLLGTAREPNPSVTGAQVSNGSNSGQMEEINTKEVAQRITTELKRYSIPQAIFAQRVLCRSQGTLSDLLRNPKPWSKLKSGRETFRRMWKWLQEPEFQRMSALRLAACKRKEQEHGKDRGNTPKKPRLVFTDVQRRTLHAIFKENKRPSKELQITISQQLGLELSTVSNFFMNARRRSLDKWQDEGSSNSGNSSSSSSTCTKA
UniProt Q00613, whole entry: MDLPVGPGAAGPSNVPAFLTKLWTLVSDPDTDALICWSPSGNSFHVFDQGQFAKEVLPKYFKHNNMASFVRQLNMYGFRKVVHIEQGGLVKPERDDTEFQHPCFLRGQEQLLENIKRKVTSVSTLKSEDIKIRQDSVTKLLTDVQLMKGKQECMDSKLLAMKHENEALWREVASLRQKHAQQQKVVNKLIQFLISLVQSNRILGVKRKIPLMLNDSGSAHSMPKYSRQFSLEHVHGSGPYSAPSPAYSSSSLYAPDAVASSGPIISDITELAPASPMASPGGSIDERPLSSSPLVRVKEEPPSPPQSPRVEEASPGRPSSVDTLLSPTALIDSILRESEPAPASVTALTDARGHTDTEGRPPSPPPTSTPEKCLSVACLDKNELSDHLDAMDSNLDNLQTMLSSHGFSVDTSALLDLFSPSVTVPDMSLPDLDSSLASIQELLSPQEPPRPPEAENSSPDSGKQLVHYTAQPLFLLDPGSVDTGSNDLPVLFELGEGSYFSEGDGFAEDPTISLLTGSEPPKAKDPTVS
UniProt Q96RI1, whole entry: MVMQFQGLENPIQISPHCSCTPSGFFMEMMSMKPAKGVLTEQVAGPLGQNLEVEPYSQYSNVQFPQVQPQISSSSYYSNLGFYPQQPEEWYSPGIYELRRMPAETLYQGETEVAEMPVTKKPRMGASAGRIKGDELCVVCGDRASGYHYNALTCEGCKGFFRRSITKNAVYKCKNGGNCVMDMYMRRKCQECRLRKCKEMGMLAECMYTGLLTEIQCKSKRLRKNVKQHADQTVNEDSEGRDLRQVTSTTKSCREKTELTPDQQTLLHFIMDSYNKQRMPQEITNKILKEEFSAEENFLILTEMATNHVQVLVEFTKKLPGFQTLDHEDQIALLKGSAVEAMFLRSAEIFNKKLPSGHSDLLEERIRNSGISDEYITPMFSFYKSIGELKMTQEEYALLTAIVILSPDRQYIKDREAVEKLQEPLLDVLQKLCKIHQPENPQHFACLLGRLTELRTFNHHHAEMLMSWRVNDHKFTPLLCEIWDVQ

[2] = ATG_E_Box_CIS: Attagene CIS-FACTORIAL HepG2 Assay for human Enhancer Box (E-box) (AID 2282936); conditions: HepG2 E-box cis-reporter transcription, actives raise or lower the signal
How it was run: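 Fluorescent reporter fragments separated by capillary electrophoresis gave the signal; mRNA came from HepG2 cells transfected with cis-element reporters and treated 24 h. Curves fitted bidirectionally relative to DMSO controls.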

[3] = ATG_M_61_CIS: Attagene CIS-FACTORIAL HepG2 Assay for M61 Transcription Factor (Internal Marker) (AID 2282937); conditions: HepG2 Attagene CIS-FACTORIAL M61 internal marker reporter; actives raise or lower the signal
How it was run: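 Readout is reporter mRNA by RT-PCR, fluorescent primer extension and capillary electrophoresis, with gain or loss fitted relative to DMSO. Transfected HepG2 cells carrying endogenous-TF-driven cis reporters were exposed to chemicals for 24 hours.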

[4] = ATG_EGR_CIS: Attagene CIS-FACTORIAL HepG2 Assay for human Early Growth Response 1 (EGR1) (AID 2282938); conditions: HepG2 Attagene CIS-FACTORIAL EGR reporter mRNA; actives raise or lower the signal
How it was run: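 After 24 h compound exposure, RNA from reporter-transfected HepG2 cells was reverse-transcribed, PCR-amplified, fluorescently labelled and resolved by capillary electrophoresis. EGR1 reporter transcript changes, up or down, were fitted against DMSO, reflecting endogenous transcription-factor activity.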

[5] = ATG_M_19_CIS: Attagene CIS-FACTORIAL HepG2 Assay for M19 Transcription Factor (Internal Marker) (AID 2282939); conditions: HepG2 Attagene CIS-FACTORIAL M19 internal marker reporter; actives raise or lower the signal
How it was run: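 Transfect HepG2 with MRTU reporter library → dose chemical, 24 h → isolate total RNA, reverse-transcribe with oligo(dT) → PCR, 6-FAM label, HpaI cut (2 h, 37 C) → capillary electrophoresis. Bidirectional fit vs DMSO.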

[6] = ATG_Ets_CIS: Attagene CIS-FACTORIAL HepG2 Assay for human Erythroblast Transformation Specific (ETS) (AID 2282941); conditions: HepG2 ETS cis-reporter transcription, actives raise or lower the signal
How it was run: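 Bidirectional fit versus DMSO of reporter mRNA signal, detected by RT-PCR and capillary electrophoresis in HepG2 cells transiently transfected with cis-element reporters and dosed 24 h.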

[7] = target: Hepatocyte nuclear factor 3-beta (Homo sapiens) (UniProt Q9Y261); experiment: ATG_FoxA2_CIS: Attagene CIS-FACTORIAL HepG2 Assay for human Forkhead box A2 (FOXA2) (AID 2282942); conditions: HepG2 cis-reporter transcription factor activity, 24 h; actives raise or lower the signal
How it was run: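 Endogenous transcription factor activity is captured via cis-element-driven reporter transcripts in transfected HepG2. Total RNA taken at 24 h post-dosing; labelled RT-PCR products resolved by capillary electrophoresis. Gain or loss fitted versus DMSO.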

[8] = ATG_FoxO_CIS: Attagene CIS-FACTORIAL HepG2 Assay for human Forkhead box O (FoxO) (AID 2282943); conditions: HepG2 Attagene cis-reporter, FoxO element, mRNA; actives raise or lower the signal
How it was run: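 HepG2, transient MRTU transfection (cis element, endogenous TFs). Dose 24 h. TriZol RNA → oligo(dT) RT → PCR → 6-FAM primer extension → HpaI cut → CE. Gain/loss vs DMSO.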

[9] = ATG_GATA_CIS: Attagene CIS-FACTORIAL HepG2 Assay for human GATA Binding Protein (AID 2282944); conditions: HepG2 GATA cis-element reporter, Attagene multiplex mRNA; actives raise or lower the signal
How it was run: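 Transient MRTU transfection, HepG2, 24 h compound exposure. Total RNA → oligo(dT) RT → PCR → 6-FAM primer extension → HpaI cut → CE. Bidirectional fit vs DMSO.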

[10] = ATG_GLI_CIS: Attagene CIS-FACTORIAL HepG2 Assay for human Zinc Finger Protein GLI1 (AID 2282945); conditions: HepG2, Attagene cis-factorial reporter mRNA, GLI element; actives raise or lower the signal
How it was run: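 Bidirectional curve fits relative to DMSO, using reporter mRNA levels from RT-PCR plus capillary electrophoresis. Cells were HepG2 transiently carrying cis-regulated reporter constructs, harvested 24 h after dosing.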

[11] = ATG_GRE_CIS: Attagene CIS-FACTORIAL HepG2 Assay for human Glucocorticoid Response Elements (GRE) (AID 2282947); conditions: HepG2 GRE cis-reporter, Attagene multiplex mRNA; actives raise or lower the signal
How it was run: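 Multiplexed cis-reporter mRNA induction, HepG2, 24 h post-dose. RT-PCR, FAM-labelled, HpaI-digested amplicons by CE. Bidirectional fit vs DMSO.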

[12] = ATG_ISRE_CIS: Attagene CIS-FACTORIAL HepG2 Assay for human Interferon Regulatory Factor 1 (IRF1) binding to an Interferon-Stimulated Response Element (ISRE) (AID 2282948); conditions: HepG2 ISRE cis-reporter (Attagene), mRNA transcription readout; actives raise or lower the signal
How it was run: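 Uses HepG2 liver cells transfected with cis-regulated reporters and measures mRNA 24 h post-dosing through RT-PCR, primer-extension labelling and capillary electrophoresis, with DMSO as negative control.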

[13] = ATG_M_32_CIS: Attagene CIS-FACTORIAL HepG2 Assay for M32 Transcription Factor (Internal Marker) (AID 2282949); conditions: HepG2 Attagene cis-factorial M32 reporter, mRNA; actives raise or lower the signal;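 also: background control marker of the multiplexed CIS panel rather than a real target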
How it was run: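 Using DMSO as baseline, bidirectional curve fits were applied to reporter mRNA signals. These came from transiently transfected HepG2 cells exposed for 24 h, with RNA analysed by RT-PCR, FAM primer extension, HpaI digestion and CE.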

[14] = ATG_M_06_CIS: Attagene CIS-FACTORIAL HepG2 Assay for M06 Transcription Factor (Internal Marker) (AID 2282950); conditions: HepG2 Attagene CIS-FACTORIAL M06 internal marker reporter; actives raise or lower the signal
How it was run: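 Read-out is fluorescence of labelled reporter cDNA fragments resolved by capillary electrophoresis after RT-PCR. Cells: HepG2 carrying transfected cis-promoter reporter units, treated 24 h. Gain or loss of signal fitted relative to DMSO.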

[15] = target: Hypoxia-inducible factor 1-alpha (Homo sapiens) (UniProt Q16665); experiment: ATG_HIF1a_CIS: Attagene CIS-FACTORIAL HepG2 Assay for human Hypoxia Inducible Factor 1 (HIF1A) (AID 2282951); conditions: HepG2 Attagene cis-factorial HIF1a reporter transcription; actives raise or lower the signal
How it was run: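 Activity is fitted in both directions relative to DMSO. Reporter transcripts are read by RT-PCR, fluorescent primer extension and capillary electrophoresis after 24 h chemical treatment. The cells are HepG2 carrying transiently transfected cis-element-driven reporter units responding to endogenous factors.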

[16] = target: Hepatocyte nuclear factor 6 (Homo sapiens) (UniProt Q9UBC0); experiment: ATG_HNF6_CIS: Attagene CIS-FACTORIAL HepG2 Assay for human Hepatocyte Nuclear Factor 6 (HNF6) (AID 2282952); conditions: HepG2 Attagene cis-factorial HNF6 reporter transcription; actives raise or lower the signal
How it was run: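 First, HepG2 cells were transfected with the multiplexed cis reporter library and dosed with chemical for 24 h. Next, RNA was reverse-transcribed, PCR-amplified and fluorescently labelled. Finally, HpaI-digested fragments were read by capillary electrophoresis.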

[17] = target: Heat shock factor protein 1 (Homo sapiens) (UniProt Q00613); experiment: ATG_HSE_CIS: Attagene CIS-FACTORIAL HepG2 Assay for human Heat Shock Transcription Factor 1 (HSE) (AID 2282953); conditions: HepG2 HSE cis-reporter, Attagene RNA transcription; actives raise or lower the signal
How it was run: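 HepG2, transient MRTU transfection, cis-promoter reporters (endogenous TF activity). 24 h compound. RNA → oligo(dT) RT → PCR → 6-FAM primer extension → HpaI cut → CE. Bidirectional fit vs DMSO.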

[18] = ATG_MRE_CIS: Attagene CIS-FACTORIAL HepG2 Assay for human Metal Responsive Element (MRE) (AID 2282954); conditions: HepG2 MRE cis-reporter transcription, Attagene multiplex; actives raise or lower the signal
How it was run: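 Multiplexed cis-reporter assay in human HepG2 liver cells, 24 h incubation with test chemical. Reporter transcripts measured by RT-PCR and capillary electrophoresis; values from bidirectional curve fitting versus DMSO.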

[19] = ATG_ERE_CIS: Attagene CIS-FACTORIAL HepG2 Assay for Estrogen Response Element (ERE) (AID 2282940); conditions: HepG2 ERE cis-reporter, Attagene RNA transcript; actives raise or lower the signal
How it was run: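 Transient MRTU transfection of human HepG2; cis-element promoters; 24 h dosing; total RNA → RT (oligo dT) → PCR → 6-FAM primer extension → HpaI digest → CE fluorescence. Bidirectional fit, DMSO baseline.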

[20] = target: Bile acid receptor (Homo sapiens) (UniProt Q96RI1); experiment: ATG_IR1_CIS: Attagene CIS-FACTORIAL HepG2 Assay for human Nuclear Receptor Subfamily 1 Group H Member 4 (NR1H4), IR1 submotif (AID 2282946); conditions: IR1 reporter transcription, actives raise or lower the signal
How it was run: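 HepG2 cells transiently transfected with multiplexed cis-element reporter units read endogenous transcription factor activity. After 24 h compound exposure, reporter mRNA was quantified by RT-PCR, fluorescent labelling, HpaI digestion and capillary electrophoresis; bidirectional fitting versus DMSO baseline.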

Measured: AC50

O=[N+]([O-])c1ccccc1[N+](=O)[O-]
active: [2] 46.7 µM
not listed: [19] | [20]
inactive: all other assays above

CC(C)OP(OC(C)C)OC(C)C
inactive: all assays above

CCOP(=O)(Cl)Cl
not listed: [17]
inactive: all other assays above

ClCCOP(OCCCl)OCCCl
not listed: [20]
inactive: all other assays above

ClCCNCCCl
inactive: all assays above

From PubChem BioAssay (EPA / NIEHS)
